Apparent affinities of Ab-14 variants for a coronavirus HR2 peptide

Source: Li et al. 2023 (doi:10.1038/s41467-023-39022-2), MIT Lincoln Laboratory and A-Alpha Bio; data file from the FLAb repository.

Antigen: PDVDLGDISGINAS, a 14-residue peptide of the SARS-CoV-2 spike HR2 region.

The variants keep the heavy chain, the linker and the frameworks of Ab-14 (scFv order VH, the linker GGGGSGGGGSGGGGS, VL).
VH: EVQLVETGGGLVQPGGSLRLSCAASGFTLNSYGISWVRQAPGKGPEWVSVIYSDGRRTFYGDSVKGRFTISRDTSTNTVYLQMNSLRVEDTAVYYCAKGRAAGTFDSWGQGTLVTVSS
VL: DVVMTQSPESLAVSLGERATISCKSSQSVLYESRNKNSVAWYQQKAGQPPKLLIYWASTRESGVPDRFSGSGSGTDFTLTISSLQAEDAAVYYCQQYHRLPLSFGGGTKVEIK

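Phage display of a naive human antibody library on the peptide gave the parent. This is the validation round: designs drawn from the data on random variants, tested in the same kind of assay. Their group label is 14L_En_Gen (En: ensemble of fine-tuned language models; Gen: genetic algorithm). The scFvs were displayed on barcoded MATa yeast, the peptide on MATalpha yeast. The frequency of each diploid, read from paired DNA barcodes, reflects how well the two displayed proteins bind. The ratio of observed to expected reads was calibrated, replicate by replicate, on BCL2-family standards whose Kd was known from biolayer interferometry. Each pool was mated in six replicate cultures.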

Sequences are complete VL domains.
The read-out is the apparent dissociation constant on a log10 scale (nM): the lower, the stronger.
"ND" means that the variant was in the library but no mating with the target was seen in that replicate; the authors take this as a sign of poor binding, and no number exists.
The range of this assay differs from that of the first round, and the authors advise against merging the two.

| VL | replicates, log10 nM | signal with controls |
|---|---|---|
| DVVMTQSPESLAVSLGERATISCMLGETYEGEKRQRNSVAWYQQKAGQPPKLLIYHNSMRANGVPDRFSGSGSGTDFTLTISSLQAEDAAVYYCQQYDRLPLAFGGGTKVEIK | ND / ND / 1.58 / ND / 2.75 / ND | 0/18 |
| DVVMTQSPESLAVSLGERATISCTIGQTLMSGVRNRSNVAWYQQKAGQPPKLLIYEVSERLNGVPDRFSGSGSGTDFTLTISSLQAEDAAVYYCQQYDRLPLLFGGGTKVEIK | 1.61 / 1.23 / 1.43 / 1.41 / 1.13 / 1.68 | 2/18 (2.82) |
| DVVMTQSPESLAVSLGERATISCIVSQMMLWGMHLKNSIAWYQQKAGQPPKLLIYEAQTRINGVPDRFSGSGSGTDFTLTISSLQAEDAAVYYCQQYDRLPLFFGGGTKVEIK | ND / ND / ND / 3.95 / ND / 1.88 | 1/18 (1.78) |
| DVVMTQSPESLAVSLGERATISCMVSQLMLWGHLAKNSIAWYQQKAGQPPKLLIYEAEHRINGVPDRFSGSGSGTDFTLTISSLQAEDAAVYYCQQYDRLPLFFGGGTKVEIK | 1.21 / 0.88 / 1.11 / 1.35 / 0.68 / 1.03 | 0/18 |
| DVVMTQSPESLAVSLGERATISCKLTATMRFEQKASNNIAWYQQKAGQPPKLLIYEVTNRLKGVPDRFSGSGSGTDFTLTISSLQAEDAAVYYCQQYYRLPLAFGGGTKVEIK | 1.10 / 0.45 / 0.82 / 1.08 / 0.45 / 0.54 | 0/18 |
| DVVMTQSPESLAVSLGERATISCSISGFMKSLSAHKNSVAWYQQKAGQPPKLLIYDMTNREDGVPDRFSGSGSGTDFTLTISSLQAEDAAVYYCQQYDRLPLSFGGGTKVEIK | 0.80 / 0.15 / -0.01 / 0.03 / -0.03 / 0.37 | 1/18 (1.96) |
| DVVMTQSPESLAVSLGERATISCIVSQLMLWGLHAKNSIAWYQQKAGQPPKLLIYEAEMRTNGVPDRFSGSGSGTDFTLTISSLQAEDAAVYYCQQYDRLPLIFGGGTKVEIK | ND / ND / ND / ND / ND / ND | 0/18 |
| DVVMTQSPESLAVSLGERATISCKLVNFMNRGTHHTSNIAWYQQKAGQPPKLLIYDAQNRLDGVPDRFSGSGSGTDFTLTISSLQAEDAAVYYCQQYYRLPLAFGGGTKVEIK | 0.39 / 0.12 / 0.31 / 0.06 / 0.24 / 0.50 | 1/18 (2.59) |
| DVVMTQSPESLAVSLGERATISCTLYGLSMSMSKNTNNVAWYQQKAGQPPKLLIYEMTTREDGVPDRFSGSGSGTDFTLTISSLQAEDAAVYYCQQYDRLPLIFGGGTKVEIK | 0.58 / 1.49 / 0.54 / 0.89 / 1.29 / 0.52 | 0/18 |
| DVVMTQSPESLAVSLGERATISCMVYGSMDQALRTHNSIAWYQQKAGQPPKLLIYDNQTRESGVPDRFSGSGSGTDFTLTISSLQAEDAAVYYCQQYDRLPLSFGGGTKVEIK | ND / 1.95 / 2.58 / ND / ND / 2.45 | 0/18 |
| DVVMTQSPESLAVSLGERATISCKLVQFMNRGTHHTSNIAWYQQKAGQPPKLLIYDAQNRMDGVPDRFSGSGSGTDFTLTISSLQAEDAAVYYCQQYARLPLFFGGGTKVEIK | 0.55 / 0.40 / 0.22 / 0.38 / 0.35 / 0.56 | 1/18 (2.40) |
| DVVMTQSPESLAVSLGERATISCHITMGMYVKGRHHSSIAWYQQKAGQPPKLLIYQAETRMQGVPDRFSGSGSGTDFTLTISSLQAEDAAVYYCQQYDRLPLIFGGGTKVEIK | 2.48 / 2.18 / 1.87 / 2.50 / 2.01 / 1.74 | 3/18 (3.54) |
| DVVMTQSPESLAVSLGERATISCMIHEMMGLMSHKQSSIAWYQQKAGQPPKLLIYDNSTREDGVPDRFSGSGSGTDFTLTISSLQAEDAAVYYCQQYDRLPLSFGGGTKVEIK | ND / ND / 4.14 / ND / 2.50 / ND | 3/18 (2.55) |
| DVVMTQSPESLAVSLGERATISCMVTQMAMTGMMTKRSVAWYQQKAGQPPKLLIYNATTREEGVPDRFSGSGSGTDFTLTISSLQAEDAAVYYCQQYHRLPLIFGGGTKVEIK | 0.88 / 0.97 / 0.66 / 0.54 / 0.81 / 1.03 | 1/18 (1.46) |
| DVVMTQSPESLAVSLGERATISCIISELYNQATGMRNNVAWYQQKAGQPPKLLIYNNATREDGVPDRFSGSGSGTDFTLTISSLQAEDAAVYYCQQYDRLPLSFGGGTKVEIK | ND / ND / ND / ND / ND / ND | 0/18 |
| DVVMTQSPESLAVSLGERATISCMISQLQNMGQFAINSVAWYQQKAGQPPKLLIYQASLRNDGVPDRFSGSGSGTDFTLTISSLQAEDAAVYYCQQYDRLPLTFGGGTKVEIK | 1.85 / 2.56 / 2.64 / 2.22 / 1.51 / 2.08 | 0/18 |
| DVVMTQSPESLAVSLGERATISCKIGMTLNELMIKKNNVAWYQQKAGQPPKLLIYDLVMRENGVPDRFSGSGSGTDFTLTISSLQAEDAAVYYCQQYHRLPLSFGGGTKVEIK | 0.30 / 0.09 / 0.12 / -0.03 / 0.22 / 0.23 | 3/18 (2.71) |
| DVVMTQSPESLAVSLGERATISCMLSEVLHMLGVQKNSIAWYQQKAGQPPKLLIYDLVIRANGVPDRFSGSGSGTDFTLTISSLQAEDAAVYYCQQYHRLPLMFGGGTKVEIK | ND / ND / ND / ND / ND / ND | 0/18 |
| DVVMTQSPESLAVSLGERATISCTISMHTSLFSQTINNVAWYQQKAGQPPKLLIYEVSTRENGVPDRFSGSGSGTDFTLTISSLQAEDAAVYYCQQYDRLPLAFGGGTKVEIK | 0.67 / 0.62 / 0.71 / 0.82 / 1.15 / 0.84 | 0/18 |
| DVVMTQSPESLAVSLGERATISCKIGMTLNQLMHKKNNVAWYQQKAGQPPKLLIYDLVERANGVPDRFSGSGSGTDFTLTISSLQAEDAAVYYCQQYHRLPLSFGGGTKVEIK | 0.77 / 0.84 / 0.47 / 0.48 / 0.85 / 0.73 | 0/18 |
| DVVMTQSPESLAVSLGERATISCMISQVMNTLTRYGNNVAWYQQKAGQPPKLLIYDLAERENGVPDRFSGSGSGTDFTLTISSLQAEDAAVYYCQQYFRLPLSFGGGTKVEIK | ND / ND / ND / ND / ND / ND | 2/18 (0.81) |

The 2 strongest on average among those seen in every replicate, once more:

| VL | replicates, log10 nM | signal with controls |
|---|---|---|
| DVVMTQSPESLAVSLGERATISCKIGMTLNELMIKKNNVAWYQQKAGQPPKLLIYDLVMRENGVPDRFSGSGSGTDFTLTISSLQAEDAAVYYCQQYHRLPLSFGGGTKVEIK | 0.30 / 0.09 / 0.12 / -0.03 / 0.22 / 0.23 | 3/18 (2.71) |
| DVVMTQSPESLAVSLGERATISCSISGFMKSLSAHKNSVAWYQQKAGQPPKLLIYDMTNREDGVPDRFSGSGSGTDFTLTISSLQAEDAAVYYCQQYDRLPLSFGGGTKVEIK | 0.80 / 0.15 / -0.01 / 0.03 / -0.03 / 0.37 | 1/18 (1.96) |

The parent sequence was in this pool as ten entries: three were never detected, three once, and four in most replicates, with averages from 0.34 to 2.37.
In the paper, a design with two or fewer of six values counts as a poor binder.
Empty control strains, which show no peptide, gave a signal in 4% of pairings with all light chain designs; the median was 2.64 and 95% of these signals were weaker than 1.59. No background was subtracted. Also given: how often the same scFv was detected with the empty control strains, with their mean in brackets.